Values of other authors in patent US20110027230A1, “COMPOSITIONS COMPRISING PHYTOESTROGENES SELECTIVE FOR ESTROGEN BETA RECEPTOR AND DIETARY FIBRES” (priority 2008, published 2011).

Amino acid sequences for entries named in this document (tags omitted).
UniProt Q92731, whole entry, species assumed: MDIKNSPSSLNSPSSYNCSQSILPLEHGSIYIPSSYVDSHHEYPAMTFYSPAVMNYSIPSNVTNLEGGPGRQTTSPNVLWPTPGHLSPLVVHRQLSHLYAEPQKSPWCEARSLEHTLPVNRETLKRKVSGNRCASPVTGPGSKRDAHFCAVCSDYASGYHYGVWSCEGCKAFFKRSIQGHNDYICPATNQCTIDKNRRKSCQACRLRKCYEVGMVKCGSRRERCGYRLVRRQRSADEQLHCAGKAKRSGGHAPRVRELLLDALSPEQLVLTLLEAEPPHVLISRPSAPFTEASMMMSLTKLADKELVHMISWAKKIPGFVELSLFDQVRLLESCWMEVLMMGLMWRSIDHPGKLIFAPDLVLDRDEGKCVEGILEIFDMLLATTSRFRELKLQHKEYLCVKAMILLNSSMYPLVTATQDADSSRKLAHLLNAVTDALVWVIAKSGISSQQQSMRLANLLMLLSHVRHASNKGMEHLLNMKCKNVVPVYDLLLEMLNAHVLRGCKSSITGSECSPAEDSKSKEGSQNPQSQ

Biological target: ERβ (Homo sapiens, UniProt Q92731)
Conditions: literature; cited from earlier work

C[C@]12CC[C@@H]3c4ccc(O)cc4CC[C@H]3[C@@H]1CC[C@@H]2O [estrogen, 17β-estradiol]
Selectivity for estrogen receptors ERβ and ERα: non selective ligand for both receptors
